Source: patent publication US6962920B2, “Pyrimidine derivatives and methods of making and using these derivatives” (Duquesne University of the Holy Ghost, priority 1992, dated 2005)

Protein sequences, listed by entry. Tags and fused reporters are not part of them.
UniProt Q920D2, whole entry: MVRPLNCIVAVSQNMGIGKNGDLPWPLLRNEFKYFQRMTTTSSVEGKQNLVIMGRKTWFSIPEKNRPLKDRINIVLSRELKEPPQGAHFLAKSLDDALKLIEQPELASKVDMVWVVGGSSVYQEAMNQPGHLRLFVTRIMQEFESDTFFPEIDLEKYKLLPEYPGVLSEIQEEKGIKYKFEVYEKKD

What was measured:
RL DHFR = RL DHFR (Rattus norvegicus, UniProt Q920D2); test: Inhibition of DHFR from rat liver; format: biochemical; details: read-out: Inhibitory Concentrations (IC50) RL DHFR; Table 26
K-562 = test: NCI in vitro anti-cancer activity; details: Table 29, Leukemia
UACC-62 = test: NCI in vitro anti-cancer activity, Melanoma; details: Table 29, Melanoma
LOX IMVI = test: NCI in vitro anti-cancer activity, Melanoma; details: Table 29, Melanoma
UACC-257 = test: NCI in vitro anti-cancer activity, Melanoma; details: Table 29, Melanoma
MALME-3M = test: NCI in vitro anti-cancer activity, Melanoma; details: Table 29, Melanoma
M14 = test: NCI in vitro anti-cancer activity, Melanoma; details: Table 29, Melanoma
SK-MEL-28 = test: NCI in vitro anti-cancer activity, Melanoma; details: Table 29, Melanoma
SK-MEL-2 = test: NCI in vitro anti-cancer activity, Melanoma; details: Table 29, Melanoma
SF-539 = test: NCI in vitro anti-cancer activity, CNS Cancer; details: Table 29, CNS Cancer
U251 = test: NCI in vitro anti-cancer activity, CNS Cancer; details: Table 29, CNS Cancer
SF-268 = test: NCI in vitro anti-cancer activity, CNS Cancer; details: Table 29, CNS Cancer
SF-295 = test: NCI in vitro anti-cancer activity, CNS Cancer; details: Table 29, CNS Cancer
SNB-75 = test: NCI in vitro anti-cancer activity, CNS Cancer
SNB-19 = test: NCI in vitro anti-cancer activity, CNS Cancer; details: Table 29, CNS Cancer
786-0 = test: NCI in vitro anti-cancer activity, Renal Cancer; details: Table 29, Renal Cancer
CAKI-1 = test: NCI in vitro anti-cancer activity, Renal Cancer; details: Table 29, Renal Cancer
RXF 393 = test: NCI in vitro anti-cancer activity, Renal Cancer; details: Table 29, Renal Cancer, RXF 393
ACHN = test: NCI in vitro anti-cancer activity, Renal Cancer; details: Table 29, Renal Cancer
UO-31 = test: NCI in vitro anti-cancer activity, Renal Cancer; details: Table 29, Renal Cancer
TK-10 = test: NCI in vitro anti-cancer activity, Renal Cancer; details: Table 29, Renal Cancer
SN12C = test: NCI in vitro anti-cancer activity, Renal Cancer; details: Table 29, Renal Cancer
HT29 = test: NCI in vitro anti-cancer activity, Colon Cancer; details: Table 29, Colon Cancer
KM12 = test: NCI in vitro anti-cancer activity, Colon Cancer; details: Table 29, Colon Cancer
HCT-15 = test: NCI in vitro anti-cancer activity, Colon Cancer; details: Table 29, Colon Cancer
SW-620 = test: NCI in vitro anti-cancer activity, Colon Cancer; details: Table 29, Colon Cancer
HCT-116 = test: NCI in vitro anti-cancer activity, Colon Cancer; details: Table 29, Colon Cancer
HCC-2998 = test: NCI in vitro anti-cancer activity, Colon Cancer; details: Table 29, Colon Cancer
COLO 205 = test: NCI in vitro anti-cancer activity, Colon Cancer; details: Table 29, Colon Cancer
SK-MEL-5 = test: NCI in vitro anti-cancer activity, Melanoma; format: cell-based; details: Table 29, Melanoma
PC-3 = test: NCI in vitro anti-cancer activity, Prostate Cancer; details: Table 29, Prostate Cancer
DU-145 = test: NCI in vitro anti-cancer activity, Prostate Cancer; details: Table 29, Prostate Cancer
NCI-H460 = test: NCI in vitro anti-cancer activity, Non-Small Cell Lung Cancer; format: cell-based; details: Table 29, Non-Small Cell Lung Cancer
HS 578T = test: NCI in vitro anti-cancer activity, Breast Cancer; details: Table 29, Breast Cancer
T-47D = test: NCI in vitro anti-cancer activity, Breast Cancer; details: Table 29, Breast Cancer
MDA-MB-435 = test: NCI in vitro anti-cancer activity, Breast Cancer; details: Table 29, Breast Cancer
MDA-N = test: NCI in vitro anti-cancer activity, Breast Cancer; details: Table 29, Breast Cancer
MDA-MB-231/ATCC = test: NCI in vitro anti-cancer activity, Breast Cancer; details: Table 29, Breast Cancer
BT-549 = test: NCI in vitro anti-cancer activity, Breast Cancer; details: Table 29, Breast Cancer
MCF7 = test: NCI in vitro anti-cancer activity, Breast Cancer; details: Table 29, Breast Cancer
SK-OV-3 = test: NCI in vitro anti-cancer activity, Ovarian Cancer; details: Table 29, Ovarian Cancer
IGROV1 = test: NCI in vitro anti-cancer activity, Ovarian Cancer; details: Table 29, Ovarian Cancer
OVCAR-3 = test: NCI in vitro anti-cancer activity, Ovarian Cancer; details: Table 29, Ovarian Cancer
OVCAR-5 = test: NCI in vitro anti-cancer activity, Ovarian Cancer; details: Table 29, Ovarian Cancer
OVCAR-8 = test: NCI in vitro anti-cancer activity, Ovarian Cancer; details: Table 29, Ovarian Cancer
OVCAR-4 = test: NCI in vitro anti-cancer activity, Ovarian Cancer; details: Table 29, Ovarian Cancer
HOP-92 = test: NCI in vitro anti-cancer activity, Non-Small Cell Lung Cancer; details: Table 29, Non-Small Cell Lung Cancer
NCI-H23 = test: as above; details: Table 29, Non-Small Cell Lung Cancer
NCI-H226 = test: as above; details: Table 29, Non-Small Cell Lung Cancer
EKVX = test: as above
NCI-H522 = test: as above; details: Table 29, Non-Small Cell Lung Cancer
A549/ATCC = test: as above; details: Table 29, Non-Small Cell Lung Cancer
A498 = test: NCI in vitro anti-cancer activity, renal cancer; details: Table 29, Renal Cancer
SR = test: NCI in vitro anti-cancer activity, Leukemia; details: Table 29, Leukemia
MOLT-4 = test: NCI in vitro anti-cancer activity, Leukemia; details: Table 29, Leukemia
CCRF-CEM = test: NCI in vitro anti-cancer activity, Leukemia; details: Table 29, Leukemia, CCRF-CEM
RPMI-8226 = test: NCI in vitro anti-cancer activity, Leukemia; details: Table 29, Leukemia

COc1cccc(CCc2c[nH]c3nc(N)nc(C)c23)c1
IC50 (RL DHFR): 3.7 µM

Cc1nc(N)nc2[nH]cc(CCc3ccccc3)c12
GI50 (K-562): 48.5 µM | GI50 (UACC-62): > 100 µM | GI50 (LOX IMVI): 51.3 µM | GI50 (UACC-257): 54.2 µM | GI50 (MALME-3M): > 100 µM | GI50 (M14): 48.3 µM | GI50 (SK-MEL-28): > 100 µM | GI50 (SK-MEL-2): > 100 µM | GI50 (SF-539): > 100 µM | GI50 (U251): 44 µM | GI50 (SF-268): > 100 µM | GI50 (SF-295): 51.2 µM | GI50 (SNB-75; SNB-75, CNS Cancer): selective | GI50 (SNB-75; Table 29, CNS Cancer, SNB-75): 0.0738 µM | GI50 (SNB-19): > 100 µM | GI50 (786-0): 39.8 µM | GI50 (CAKI-1): 83.5 µM | GI50 (RXF 393): 18.3 µM | GI50 (ACHN): > 100 µM | GI50 (UO-31): 21.9 µM | GI50 (TK-10): 88.7 µM | GI50 (SN12C): 27.3 µM | GI50 (HT29): 36.7 µM | GI50 (KM12): 50.6 µM | GI50 (HCT-15): 55.3 µM | GI50 (SW-620): > 100 µM | GI50 (HCT-116): 36 µM | GI50 (HCC-2998): 69 µM | GI50 (COLO 205): 66.5 µM | GI50 (SK-MEL-5): 69.1 µM | GI50 (PC-3): 33.3 µM | GI50 (DU-145): 17.5 µM | GI50 (NCI-H460): 34.5 µM | GI50 (HS 578T): 5.18 µM | GI50 (T-47D): 9.82 µM | GI50 (MDA-MB-435): > 100 µM | GI50 (MDA-N): 41.1 µM | GI50 (MDA-MB-231/ATCC): > 100 µM | GI50 (BT-549): > 100 µM | GI50 (MCF7): > 100 µM | GI50 (SK-OV-3): > 100 µM | GI50 (IGROV1): 59.9 µM | GI50 (OVCAR-3): > 100 µM | GI50 (OVCAR-5): > 100 µM | GI50 (OVCAR-8): 65.6 µM | GI50 (OVCAR-4): 87 µM | GI50 (HOP-92): 63.4 µM | GI50 (NCI-H23): > 100 µM | GI50 (NCI-H226): > 100 µM | GI50 (EKVX; Non-Small Cell Lung Cancer): selective | GI50 (EKVX; Table 29, Non-Small Cell Lung Cancer): 0.0935 µM | GI50 (NCI-H522): 84 µM | GI50 (A549/ATCC): 29.6 µM | GI50 (A498): > 100 µM | GI50 (SR): 59.5 µM | GI50 (MOLT-4): 20.6 µM | GI50 (CCRF-CEM): 13.3 µM | GI50 (RPMI-8226): 60.2 µM | IC50 (RL DHFR): 6.4 µM
